Target: BACE1 (Homo sapiens, UniProt P56817)
Test: cell-based BACE1 assay (sAPPβ modified ELISA) in SY5Y-BACEGFP-SEAPAPPwt cells
Method: FIG. 8 depicts a sAPPβ assay utilized to identify inhibitors of BACE1. The assay utilizes SY5Y cells stably overexpressing BACE-GFP and SEAP-APPwt. Cells are incubated with a candidate compound for 6 hours prior to harvesting media. BACE1-mediated cleavage of APP results in the release of sAPPβ into the media. α-secretase, a competing enzyme that is non-amyloidogenic, also cleaves APP to release […]. Using an sAPPβ-specific antibody (sβwt), SEAP-sAPPβ is specifically captured in a modified ELISA assay. Detection is achieved by addition of the fluorescent alkaline phosphatase substrate, 4-methylumbelliferyl phosphate (4-MUP).
FIG. 10A-B depicts SAR studies of N-(quinolin-8-yl)benzenesulfonamides. 28 full and partial hits, shown in (A) for compounds 1-26 and (B) for compounds 27 and 28, from the targeted screen of N-(quinolin-8-yl)benzenesulfonamides were characterized in SY5Y-BACEGFP-SEAPAPPwt cells using the cell-based BACE1 assay. All compounds were tested at 8 concentrations (30, 10, 3, 1, 0.3, 0.1, 0.03, and 0.01 μM), and data points were analyzed with Origin software and fitted using a logistic model for IC50 determination.
A cell-based modified ELISA assay for measuring sAPPβ, the secreted ectodomain of β-amyloid precursor protein (APP) following […] (BACE1) cleavage, was used to identify a class of compounds that interfered with the first step of sAPPβ generation. […]

Protein sequences, listed by entry. Tags and fused reporters are not part of them. Residues count along the entry.
UniProt P56817, 46-501 limits assumed: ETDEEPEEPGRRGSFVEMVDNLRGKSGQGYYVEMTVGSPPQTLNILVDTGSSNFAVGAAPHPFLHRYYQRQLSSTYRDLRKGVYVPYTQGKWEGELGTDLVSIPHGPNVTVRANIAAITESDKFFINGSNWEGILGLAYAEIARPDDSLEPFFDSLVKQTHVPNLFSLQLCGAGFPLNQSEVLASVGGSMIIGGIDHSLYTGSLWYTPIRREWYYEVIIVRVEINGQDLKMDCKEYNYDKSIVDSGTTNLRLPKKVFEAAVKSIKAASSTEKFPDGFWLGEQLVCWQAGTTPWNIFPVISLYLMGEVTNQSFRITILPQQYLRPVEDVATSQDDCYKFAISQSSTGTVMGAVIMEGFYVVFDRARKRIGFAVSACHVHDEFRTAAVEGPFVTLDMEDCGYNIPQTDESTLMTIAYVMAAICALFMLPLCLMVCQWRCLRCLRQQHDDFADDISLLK

`O=S(=O)(Nc1cc(Br)cc2cccnc12)c1ccc2ccccc2c1` was tested, and the “potency for sAPPβ reduction (in words)” value was “sub-micromolar” and the IC50 (read-out: IC50 (sAPPβ), 8-point dose-response (30-0.01 μM)) was 790 nM.
